Patent US8574585B2, “KDR peptides and vaccines comprising the same” (Oncotherapy Science, Inc., priority 2002, dated 2013)

Tested on: transgenic mice that express human HLA (A0201)
Experiment: IFN-γ ELISPOT of splenocytes from peptide-vaccinated A2/Kb transgenic mice
Assay type: in vivo, mouse
From the text: CTLs were induced by a vaccination method, using the 16 types of 9-mer and 10-mer peptides (SEQ ID NOs:26 to 41) predicted in Example 6 on transgenic mice that express human HLA (A0201) (Hum. Immunol., 2000 August; 61(8):764-79 Related Articles, Books, Linkout Induction of CTL response by a minimal epitope vaccine in HLA A*0201/DR1 transgenic mice: dependence on HLA class II restricted T(H) response, BenMohamed, L., Krishnan, R., Longmate, J., Auge, C., Low, L., Primus, J., and Diamond, D. J.).
Six- to eight-week old BALB/C(H-2^d) mice were obtained from CLEA Japan. A2/Kb transgenic mice (TGM) were provided by F. Jim Primus, Ph.D. at Vanderbilt-Ingram Cancer Center. T2 cells (TAP-deficient and HLA-A*0201-positive cells) were provided by Prof. H. Shiku at Mie University's Third Department of Internal Medicine.
[…] DCs were reacted with FITC-labeled anti-ClassII and CD40 antibodies, and PE-labeled anti-ClassI, CD11c, CD80, and CD86 antibodies (all from Beckton-Dickinson), and confirmed to be DCs by analysis of the surface antigens by FACS-Calibur (Beckton-Dickinson) using Cell Quest software.
Next, 100 μg of each peptide, 140 μg of HbcAg120-140 helper peptide, and 100 μL of IFA were mixed (200 μL in total). The mixture was administered subcutaneously to the right abdomen on day 0, and to the left abdomen on day 11. The spleens of the vaccinated mice were collected on day 21, erythrocytes were hemolytically removed using red lysis buffer (Sigma), and a portion of those cells were used as responder cells for IFN-γ ELISPOT assay. The remaining cells were placed into a 24-well plate (Corning) at 6×10^6 cells/well with feeder cells at a ratio of 3:1, and stimulated again. Their cytotoxicity was measured five days later. Erythrocyte-free splenocytes, which were derived from syngeneic mice, were cultured for three days in the presence of 25 μg/mL of lipopolysaccharide (LPS) to use as feeder cells.
In this Example, the IFN-γ ELISPOT method was used to evaluate CTL inducibility according to SPOTs produced by IFN-γ producing cells. Flat-bottomed 96-well multiscreen plate MAHA S45 (Millipore) was treated at 4° C. overnight with anti-mouse IFN-γ monoclonal antibody (Pharmingen). On the following day, the plate washed with PBS containing 0.05% Tween 20, and then reacted with a blocking buffer at room temperature for two hours. Thereafter, peptide-pulsed T2 cells and unpulsed T2 cells were added to each well at 10^5 cells/100 μL. […] The blue spots resulting from IFN-γ production were measured using KS ELISPOT compact release (Carl Zeiss).
Specific blue spots were determined as: Specific blue spot=(TISI(+)SPOT−TISI(−)SPOT) Those satisfying the following condition were considered effective: TISI(+)SPOT/TISI(−)SPOT≧2

Sequence: DVLYGPDTPI [SEQ ID NO:53, reference compound]
- ELISPOT ANALYSIS ×40 (SFC) MOUSE1 pep(+) (mouse 1, peptide-pulsed T2 cells): 229 SFC
- ELISPOT ANALYSIS ×40 (SFC) MOUSE1 pep(−) (mouse 1, unpulsed T2 cells): 2 SFC
- ELISPOT ANALYSIS ×40 (SFC) MOUSE2 pep(+) (mouse 2, peptide-pulsed T2 cells): 230 SFC
- ELISPOT ANALYSIS ×40 (SFC) MOUSE2 pep(−) (mouse 2, unpulsed T2 cells): 6 SFC
